Patent US8952128B2, “Somatostatin-dopamine chimeric analogs” (priority 2012, dated 2015)

The chains behind the UniProt entries cited, without tags or fusion partners. Where a name states a change or a piece, a line headed by the entry shows the natural chain unless it says otherwise.
UniProt P30874: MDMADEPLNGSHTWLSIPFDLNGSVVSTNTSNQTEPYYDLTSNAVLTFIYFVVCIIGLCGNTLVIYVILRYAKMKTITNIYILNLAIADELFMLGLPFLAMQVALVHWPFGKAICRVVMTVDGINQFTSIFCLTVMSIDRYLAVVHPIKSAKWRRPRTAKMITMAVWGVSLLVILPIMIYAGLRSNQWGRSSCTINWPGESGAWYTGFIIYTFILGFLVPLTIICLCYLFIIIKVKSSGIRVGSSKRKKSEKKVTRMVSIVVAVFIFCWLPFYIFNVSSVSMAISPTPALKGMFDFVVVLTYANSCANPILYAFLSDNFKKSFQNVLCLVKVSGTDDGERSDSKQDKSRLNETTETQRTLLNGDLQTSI

Key:
hDRD2 = hDRD2 (Homo sapiens (Human), UniProt P14416); assay type: cell-based; conditions: read-out: hDRD2 EC50 (nM) ± SEM; calcium mobilization
hSSTR2 = hSSTR2 (Homo sapiens (Human), UniProt P30874); test: Intracellular calcium mobilization assay (FLIPR Calcium 4), hSSTR2; assay type: cell-based;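 also: agonist activity read as intracellular calcium rise in cells expressing human SSTR2, loaded with a calcium-sensitive dye for 60 min at 37 °C, measured by FLIPR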

Molecule	EC50 (hDRD2) [nM]	EC50 (hSSTR2) [µM]	Emax (hSSTR2; read-out: hSSTR2 % Emax ± SEM) [%]
Dop1-cyclo(DLys-Arg-Phe-Phe-DTrp-Lys-Thr-Phe) [Compound 44]	232 ± 33.1		
C[C@@H](O)[C@@H]1NC(=O)[C@H](CCCCN)NC(=O)[C@@H](Cc2c[nH]c3ccccc23)NC(=O)[C@H](Cc2ccncc2)NC(=O)[C@H](Cc2ccccc2)NC(=O)[C@H](CCCNC(=N)N)NC(=O)[C@H](NC(=O)CSC[C@@H]2C[C@@H]3c4cccc5[nH]cc(c45)C[C@H]3N(C)C2)CCCCNC(=O)[C@H](Cc2ccccc2)NC1=O [Compound 24, Dop1-cyclo(DLys-Arg-Phe-4Pal-DTrp-Lys-Thr-Phe)]		0.0031 ± 0.0002	91.7 ± 7.6
